Experimental data published in patent US20150202287A1, “COMBINATION THERAPIES COMPRISING ANTI-ERBB3 AGENTS” (Merrimack Pharmaceuticals, Inc., priority 2012, published 2015).

Experiments:
NCI-N87-GFP cells = details: absence of endogenous heregulin, 0.1 μg/mL T-DM1, 72 h
Protocol: (§1) Cells were allowed to adhere 16-20 hours at +37° C., 5% CO2. […] All conditions were assayed in biological quadruplicates. Cells were incubated for 72 h at +37° C., 5% CO2.

NCI-N87-GFP-HRG cells = details: presence of endogenous heregulin, 0.04111152 μg/mL T-DM1, 72 h
Protocol: as §1

NCI-N87 cells = test: T-DM1 and heregulin dose matrix cell viability, NCI-N87
Protocol: Cells were allowed to adhere 16-20 hours at +37° C., 5% CO2. Cells were stimulated for 4 hours by adding 5 μl of culture media containing recombinant human NRG-1-β1 EGF domain (HRG1) bringing the final HRG1 stimulation concentration to 0, 0.313, 0.625, 1.25, 2.5, 5 or 10 nM. […] All conditions were assayed in biological quadruplicates. Cells were incubated for 72 h at +37° C., 5% CO2. Cell viability was determined by CellTiter-Glo® Luminescent Cell Viability Assay by adding 20 μl of reconstituted CellTiter-Glo reagent per well, incubating plated for 10 minutes at RT in an orbital shaker and reading the luminescence signal using Biotek™ Synergy H1 Hybrid Reader.

## ado-trastuzumab emtansine [T-DM1]
NCI-N87-GFP cells
  reduction of cell viability: approximately 54.6%
NCI-N87-GFP-HRG cells
  reduction of cell viability: approximately 47.3%
NCI-N87 cells; HRG 0 nM, T-DM1 0.001524 μg/ml, with MM-111 1 μM, 72 h
  cell viability: 95.68 % of control
NCI-N87 cells; HRG 0 nM, T-DM1 0.001524 μg/ml, without MM-111, 72 h
  cell viability: 93.37 % of control
NCI-N87 cells; HRG 0 nM, T-DM1 0.004572 μg/ml, with MM-111 1 μM, 72 h
  cell viability: 78.87 % of control
NCI-N87 cells; HRG 0 nM, T-DM1 0.004572 μg/ml, without MM-111, 72 h
  cell viability: 75.62 % of control
NCI-N87 cells; HRG 0 nM, T-DM1 0.013717 μg/ml, with MM-111 1 μM, 72 h
  cell viability: 64.24 % of control
NCI-N87 cells; HRG 0 nM, T-DM1 0.013717 μg/ml, without MM-111, 72 h
  cell viability: 51.2155 % of control
NCI-N87 cells; HRG 0 nM, T-DM1 0.041152 μg/ml, with MM-111 1 μM, 72 h
  cell viability: 46.35 % of control
NCI-N87 cells; HRG 0 nM, T-DM1 0.041152 μg/ml, without MM-111, 72 h
  cell viability: 50.04 % of control
NCI-N87 cells; HRG 0 nM, T-DM1 0.123457 μg/ml, with MM-111 1 μM, 72 h
  cell viability: 41.8017 % of control
NCI-N87 cells; HRG 0 nM, T-DM1 0.123457 μg/ml, without MM-111, 72 h
  cell viability: 42.65 % of control
NCI-N87 cells; HRG 0 nM, T-DM1 0.37037 μg/ml, with MM-111 1 μM, 72 h
  cell viability: 32.86 % of control
NCI-N87 cells; HRG 0 nM, T-DM1 0.37037 μg/ml, without MM-111, 72 h
  cell viability: 46.5761 % of control
NCI-N87 cells; HRG 0 nM, T-DM1 1.111111 μg/ml, with MM-111 1 μM, 72 h
  cell viability: 35.8 % of control
NCI-N87 cells; HRG 0 nM, T-DM1 1.111111 μg/ml, without MM-111, 72 h
  cell viability: 42.8517 % of control
NCI-N87 cells; HRG 0 nM, T-DM1 3.333333 μg/ml, with MM-111 1 μM, 72 h
  cell viability: 35.57 % of control
NCI-N87 cells; HRG 0 nM, T-DM1 3.333333 μg/ml, without MM-111, 72 h
  cell viability: 40.81 % of control
NCI-N87 cells; HRG 0 nM, T-DM1 10 μg/ml, with MM-111 1 μM, 72 h
  cell viability: 32.2 % of control
NCI-N87 cells; HRG 0 nM, T-DM1 10 μg/ml, without MM-111, 72 h
  cell viability: 43.85 % of control
NCI-N87 cells; HRG 0.313 nM, T-DM1 0.001524 μg/ml, with MM-111 1 μM, 72 h
  cell viability: 98.3686 % of control
NCI-N87 cells; HRG 0.313 nM, T-DM1 0.001524 μg/ml, without MM-111, 72 h
  cell viability: 100.3208 % of control
NCI-N87 cells; HRG 0.313 nM, T-DM1 0.004572 μg/ml, with MM-111 1 μM, 72 h
  cell viability: 87.84 % of control
NCI-N87 cells; HRG 0.313 nM, T-DM1 0.004572 μg/ml, without MM-111, 72 h
  cell viability: 92.59 % of control
NCI-N87 cells; HRG 0.313 nM, T-DM1 0.013717 μg/ml, with MM-111 1 μM, 72 h
  cell viability: 74.46 % of control
NCI-N87 cells; HRG 0.313 nM, T-DM1 0.013717 μg/ml, without MM-111, 72 h
  cell viability: 79.62 % of control
NCI-N87 cells; HRG 0.313 nM, T-DM1 0.041152 μg/ml, with MM-111 1 μM, 72 h
  cell viability: 52.5808 % of control
NCI-N87 cells; HRG 0.313 nM, T-DM1 0.041152 μg/ml, without MM-111, 72 h
  cell viability: 74.72 % of control
NCI-N87 cells; HRG 0.313 nM, T-DM1 0.123457 μg/ml, with MM-111 1 μM, 72 h
  cell viability: 44.83 % of control
NCI-N87 cells; HRG 0.313 nM, T-DM1 0.123457 μg/ml, without MM-111, 72 h
  cell viability: 64.7733 % of control
NCI-N87 cells; HRG 0.313 nM, T-DM1 0.37037 μg/ml, with MM-111 1 μM, 72 h
  cell viability: 41.53 % of control
NCI-N87 cells; HRG 0.313 nM, T-DM1 0.37037 μg/ml, without MM-111, 72 h
  cell viability: 50.76 % of control
NCI-N87 cells; HRG 0.313 nM, T-DM1 1.111111 μg/ml, with MM-111 1 μM, 72 h
  cell viability: 37.6864 % of control
NCI-N87 cells; HRG 0.313 nM, T-DM1 1.111111 μg/ml, without MM-111, 72 h
  cell viability: 55.8238 % of control
NCI-N87 cells; HRG 0.313 nM, T-DM1 3.333333 μg/ml, with MM-111 1 μM, 72 h
  cell viability: 34.51 % of control
NCI-N87 cells; HRG 0.313 nM, T-DM1 3.333333 μg/ml, without MM-111, 72 h
  cell viability: 57.25 % of control
NCI-N87 cells; HRG 0.313 nM, T-DM1 10 μg/ml, with MM-111 1 μM, 72 h
  cell viability: 36.02 % of control
NCI-N87 cells; HRG 0.313 nM, T-DM1 10 μg/ml, without MM-111, 72 h
  cell viability: 57.69 % of control
NCI-N87 cells; HRG 0.625 nM, T-DM1 0.001524 μg/ml, with MM-111 1 μM, 72 h
  cell viability: 108.5211 % of control
NCI-N87 cells; HRG 0.625 nM, T-DM1 0.001524 μg/ml, without MM-111, 72 h
  cell viability: 106.4739 % of control
NCI-N87 cells; HRG 0.625 nM, T-DM1 0.004572 μg/ml, with MM-111 1 μM, 72 h
  cell viability: 86.78 % of control
NCI-N87 cells; HRG 0.625 nM, T-DM1 0.004572 μg/ml, without MM-111, 72 h
  cell viability: 106.0159 % of control
NCI-N87 cells; HRG 0.625 nM, T-DM1 0.013717 μg/ml, with MM-111 1 μM, 72 h
  cell viability: 66.86 % of control
NCI-N87 cells; HRG 0.625 nM, T-DM1 0.013717 μg/ml, without MM-111, 72 h
  cell viability: 84.04 % of control
NCI-N87 cells; HRG 0.625 nM, T-DM1 0.041152 μg/ml, with MM-111 1 μM, 72 h
  cell viability: 55.33 % of control
NCI-N87 cells; HRG 0.625 nM, T-DM1 0.041152 μg/ml, without MM-111, 72 h
  cell viability: 61.45 % of control
NCI-N87 cells; HRG 0.625 nM, T-DM1 0.123457 μg/ml, with MM-111 1 μM, 72 h
  cell viability: 45.12 % of control
NCI-N87 cells; HRG 0.625 nM, T-DM1 0.123457 μg/ml, without MM-111, 72 h
  cell viability: 71.29 % of control
NCI-N87 cells; HRG 0.625 nM, T-DM1 0.37037 μg/ml, with MM-111 1 μM, 72 h
  cell viability: 40.0349 % of control
NCI-N87 cells; HRG 0.625 nM, T-DM1 0.37037 μg/ml, without MM-111, 72 h
  cell viability: 58.91 % of control
NCI-N87 cells; HRG 0.625 nM, T-DM1 1.111111 μg/ml, with MM-111 1 μM, 72 h
  cell viability: 38.28 % of control
NCI-N87 cells; HRG 0.625 nM, T-DM1 1.111111 μg/ml, without MM-111, 72 h
  cell viability: 65.075 % of control
NCI-N87 cells; HRG 0.625 nM, T-DM1 3.333333 μg/ml, with MM-111 1 μM, 72 h
  cell viability: 38.6461 % of control
NCI-N87 cells; HRG 0.625 nM, T-DM1 3.333333 μg/ml, without MM-111, 72 h
  cell viability: 62.78 % of control
NCI-N87 cells; HRG 0.625 nM, T-DM1 10 μg/ml, with MM-111 1 μM, 72 h
  cell viability: 36.36 % of control
NCI-N87 cells; HRG 0.625 nM, T-DM1 10 μg/ml, without MM-111, 72 h
  cell viability: 67.86 % of control
NCI-N87 cells; HRG 1.25 nM, T-DM1 0.001524 μg/ml, with MM-111 1 μM, 72 h
  cell viability: 107.8277 % of control
NCI-N87 cells; HRG 1.25 nM, T-DM1 0.001524 μg/ml, without MM-111, 72 h
  cell viability: 102.2426 % of control
NCI-N87 cells; HRG 1.25 nM, T-DM1 0.004572 μg/ml, with MM-111 1 μM, 72 h
  cell viability: 99.95 % of control
NCI-N87 cells; HRG 1.25 nM, T-DM1 0.004572 μg/ml, without MM-111, 72 h
  cell viability: 94.16 % of control
NCI-N87 cells; HRG 1.25 nM, T-DM1 0.013717 μg/ml, with MM-111 1 μM, 72 h
  cell viability: 73.38 % of control
NCI-N87 cells; HRG 1.25 nM, T-DM1 0.013717 μg/ml, without MM-111, 72 h
  cell viability: 81.15 % of control
NCI-N87 cells; HRG 1.25 nM, T-DM1 0.041152 μg/ml, with MM-111 1 μM, 72 h
  cell viability: 51.01 % of control
NCI-N87 cells; HRG 1.25 nM, T-DM1 0.041152 μg/ml, without MM-111, 72 h
  cell viability: 64.9 % of control
